High-throughput results deposited in PubChem by National Center for Advancing Translational Sciences (NCATS).
Nrf2 ARE act = Nrf2 pathway activation. AREc32 ARE-luciferase reporter (MCF7-derived line), luminescence, 24 h. Potency, µM (highest dose often 46.1 µM), actives largely listed as activators. actives 0.31% (n = 410,000). AID 624171; note: nearly all actives have a fitted effect of over 65% in size
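AREc32_Fluc, 1000 cells/well, OPTI-MEM + 5% FBS, o/n 37 deg C 5% CO2; 23 nL cpd by pin tool, 24 hr; Steady-Glo 30 min RT, luminescence.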
TCR act = activates T cell receptor signaling; primary human leukocytes, anti-CD3, IL-2 HTRF, 48 h; Potency, µM (highest dose often 9.22 µM), most hits filed as activators; 330,000 tested, under 10 active; AID 504894
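48 hr co-incubation of compounds, a-CD3 beads and primary human leukocytes; IL-2 quantified homogeneously by HTRF with anti-IL-2 K and d2 conjugates.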
miR-21 reporter = miR-21 reporter, rising signal | AID 2288 | HeLa miR-21 FLuc reporter, luciferase, 48 h | 340,000 tested, under 10 active | Potency, µM (doses to about 38.3 µM); active = well fitted rising curve with a large enough effect; inconclusive = small, poorly fitted or top-dose-only effect; inactive = no such curve, though single readings can be large or run the other way;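 note: miR-21 action dims this reporter so a rising signal means less miR-21 action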
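HeLa miR-21-FLuc reporter line, endogenous miR-21; 2000 cells/well in DMEM/10% FBS; compound titration up to ~40uM final, 48 h, 37 degree Celsius; luciferase detection reagent, 15 min lysis, CCD luminescence.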
ClpP mod = qHTS Assay for Activators of ClpP; ATP-dependent Clp protease proteolytic subunit (Bacillus subtilis (strain 168)), P80244; purified B. subtilis ClpP, FRET peptide cleavage, 20 min; Potency, µM (doses to about 57.5 µM); actives 1.9% (n = 340,000); AID 651965, 2013; active = well fitted falling curve with a large enough effect; inconclusive = small, poorly fitted or top-dose-only effect; inactive = no such curve, though single readings can be large or run the other way; note: the source files actives as falling curves though it sought activators and does not explain the sign; nearly all actives have a fitted effect of over 65% in size
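FRET quenching reversal measured ClpP activation: 10 microg/mL B. subtilis ClpP at pH 8 with the FRET-FV decapeptide, read at 430 nm after 320 nm excitation. The 20-min minus 0-min signal was scaled between DMSO/no-enzyme wells and ADEP (5.8 microM final).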
A549 tox = A549 cytotoxicity, counter-screen for Nrf2 inhibitors. A549 ARE-Fluc cells, CellTiter-Fluor viability, 18-24 h. Potency, µM (series often up to 46 µM), actives largely listed as inhibitors. actives 0.16% (n = 390,000)
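Cytotoxicity counterscreen: CellTiter-Fluor fluorescence was measured in A549 ARE_Fluc cells after 18-24 h of compound exposure in a concentration series. The subsequent BugLite luminescent read reports ARE-luciferase activity.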
Nrf2 inh = inhibitors of Nrf2 signaling; A549 ARE-Fluc reporter, luciferase luminescence, 18-24 h; actives 2.1% (n = 360,000); Potency, µM (highest dose often 46 µM), most hits filed as inhibitors; note: nearly all actives have a fitted effect of over 60% in size
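Cells were seeded and rested 2 h, then exposed to compounds for 18-24 h. CellTiter-Fluor was read first as a viability measure. BugLite was added 15 min before the final luminescent read of ARE-luciferase activity in A549 cells.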
Hits are given with their value; 0 = inactive; ? = inconclusive; - = not tested or not shown; [ ] = remark or other dose. This is a sample that favours compounds with a hit; in the whole collection about 3.7% have one here. Unless noted, calls come from the whole dose curve; as a rule, active = well fitted curve in the direction sought with a large enough effect; inconclusive = small, poorly fitted or top-dose-only effect, or another doubt; inactive = no such curve, though single readings can be large; an effect the other way counts as inactive or inconclusive.

SMILES	Nrf2 ARE act	TCR act	miR-21 reporter	ClpP mod	A549 tox	Nrf2 inh
COCCN1CCN(c2cc(-c3ccccc3)nc3cc(-c4cccc(F)c4)nn23)CC1	0	0	?	25.1µM	0	?
COc1ccc(-c2cc3nc(-c4ccccc4)cc(N4CCC(O)CC4)n3n2)cc1	0	0	0	-	0	?
O=C(NC1CC1)c1ccccc1	0	-	-	0	-	-
Cc1cc(NC(=O)CS(=O)(=O)c2cn(Cc3ccc(F)cc3)c3ccccc23)no1	0	0	0	0	0	20.6µM
CCn1cc(S(=O)(=O)CC(=O)Nc2cc(C)on2)c2ccccc21	0	0	0	0	0	0
Cc1cc(NC(=O)CS(=O)(=O)c2cn(Cc3cccc(C(F)(F)F)c3)c3ccccc23)no1	0	-	-	0	-	-
Cc1cc(NC(=O)CS(=O)(=O)c2cn(Cc3cccc(F)c3)c3ccccc23)no1	0	0	0	0	?	23.1µM
CC(=O)c1ccc(NC(=O)c2cc3c([nH]c2=O)CC(c2ccccc2)CC3=O)cc1 (configuration not stated)	0	-	0	0	0	0
CCOC(=O)c1c(-c2ccc(OC)cc2)oc2ccc(OCc3ccccc3C)cc12	0	-	0	0	0	0
COC(=O)C1=NN(c2cccc(C)c2)C2C(=O)N(c3ccccc3OC)C(=O)C12 (configuration not stated)	0	0	0	?	0	0
OC[C@@H]1CN(Cc2ccc(Cl)cc2)C[C@H](n2cnc3c(NC4CCC4)ncnc32)O1	0	-	-	0	-	-
CCSc1nc(N)c(C#N)c(-c2ccco2)c1C#N	0	0	0	?	0	?
COC(=O)CSc1nc(-c2ccccc2)cc(-c2ccco2)c1C#N	?	0	0	25.1µM	0	0
COC(=O)CSc1nc(-c2ccc(C)cc2)c2c(c1C#N)CCCC2	0	0	0	28.2µM	0	0
COC(=O)CSc1nc(N)c(C#N)c(-c2ccco2)c1C#N	14.1µM	0	0	0	0	-
O=[N+]([O-])c1ccc(N/N=C\c2cccnc2)nc1	0	0	0	0	0	?
O=[N+]([O-])c1ccc(NN=Cc2ccco2)nc1	0.891µM	0	-	-	?	?
COc1ccc(C2/C=C\CN(CC3CC3)C(Cc3ccccc3)C(=O)N2Cc2ccc(F)cc2)cc1 (configuration not stated)	-	-	-	-	0	?
Cc1cccc(N2CCN(C(=O)CNC(=O)c3cccc([N+](=O)[O-])c3)CC2)c1C	0	0	0	-	0	23.1µM
CSc1ncc(C(=O)N2CCN(c3cccc(Cl)c3)CC2)c(C)n1	0	-	0	0	0	0
Cc1cccc(C(=O)NCC(=O)N2CCN(c3ccc(Cl)cc3)CC2)c1	0	0	0	0	0	?
CSc1ccccc1C(=O)N1CCN(c2cccc(Cl)c2)CC1	0	0	0	-	?	16.4µM
Cc1cccc(C(=O)NCC(=O)N2CCN(c3ccccn3)CC2)c1	0	0	-	28.2µM	0	0
Cc1cc(C)cc(C(=O)NCC(=O)N2CCN(c3cccc(Cl)c3)CC2)c1	0	0	0	-	0	20.6µM
CN(C)c1ccc(/C=C2/CCCc3c2nc2ccccc2c3C(=O)O)cc1	-	-	-	0	-	-
SMILES	Nrf2 ARE act	TCR act	miR-21 reporter	ClpP mod	A549 tox	Nrf2 inh
COc1ccc2sc(-c3ccc(N(C)C)cc3)c(-c3cnc(OC)nc3)c2c1	0	0	-	0	0	?
Cc1nc2ccccn2c1C(=O)NNS(=O)(=O)c1ccc(C(C)(C)C)cc1	0	0	0	0	0	9.2µM
COc1cc2c(cc1OC)CN(C(=S)Nc1cccc(Cl)c1C)CC2	0	0	0	31.6µM	0	18.4µM
COc1ccccc1NC(=S)N1CCc2cc(OC)c(OC)cc2C1	0[9.22 µM]	0	0	0	0	0
CC1(C(=O)NS(=O)(=O)c2cccc(C#N)c2)CCN1C(=O)CC1CCCC1 (configuration not stated)	0[9.22 µM]	-	-	0	-	-
Cc1ccc(NC(=O)C(=O)NCC(c2cccnc2)N2CCN(c3ccccc3F)CC2)cc1Cl (configuration not stated)	0	-	0	0	0	0
